Test results as given in US20160347862A1.

Key:
[1] = target: fluorescently labelled dodecapeptide hirugen; assay: fluorescence titration of fluorescently labelled hirugen with thrombin in the presence of 700 nM IgA as competitor
[2] = target: fluorescently labelled dodecapeptide hirugen; assay: fluorescence titration of fluorescently labelled hirugen with thrombin, no antibody

For “human thrombin (from UniProt P00734 314-363; P00734 364-622) (enzyme)”, the EC50 (read off the curve) [1] was 0.8 µM and the EC50 (read off the curve) [2] was 0.04 µM.
